Results taken from PubChem BioAssay AID411 (National Center for Advancing Translational Sciences (NCATS), 2006).
This is a selection; strong and weak results do not stand in their true shares. The source made the active and inactive calls. Calls come from the whole dose curve; as a rule, active = well fitted inhibition curve with a large enough effect; inconclusive = small, poorly fitted or top-dose-only effect; inactive = flat fitted curve, though single readings scatter.

Chains of the proteins cited; added tags and fusions are not shown.
UniProt P08659, whole entry: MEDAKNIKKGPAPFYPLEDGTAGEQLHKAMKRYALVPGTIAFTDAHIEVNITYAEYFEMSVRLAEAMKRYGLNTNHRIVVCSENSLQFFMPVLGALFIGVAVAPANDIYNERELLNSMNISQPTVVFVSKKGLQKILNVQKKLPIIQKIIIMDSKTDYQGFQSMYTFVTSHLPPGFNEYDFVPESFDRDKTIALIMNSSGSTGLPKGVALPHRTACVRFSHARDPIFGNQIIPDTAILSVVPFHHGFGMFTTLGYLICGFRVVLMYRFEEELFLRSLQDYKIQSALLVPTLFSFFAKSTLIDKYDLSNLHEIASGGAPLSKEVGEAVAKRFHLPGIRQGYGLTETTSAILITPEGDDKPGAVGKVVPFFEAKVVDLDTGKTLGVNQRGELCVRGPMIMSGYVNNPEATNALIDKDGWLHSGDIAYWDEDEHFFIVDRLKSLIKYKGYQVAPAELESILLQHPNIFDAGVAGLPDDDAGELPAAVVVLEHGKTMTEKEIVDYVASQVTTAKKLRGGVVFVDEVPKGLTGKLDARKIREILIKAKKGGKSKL

Each compound was assayed against Luciferin 4-monooxygenase (Photinus pyralis) (UniProt P08659) (assay: qHTS Assay for Inhibitors of Firefly Luciferase). Details: purified firefly luciferase, luminescence, 8 min; at 57.1 µM (top of the series) unless noted.
Method: To aid in the interpretation of high-throughput screening (HTS) results derived from luciferase-based assays, we used quantitative HTS, an approach that defines the concentration-response behavior of each library sample, to profile the ATP-dependent luciferase from Photinus pyralis against more than 72 000 samples. Luciferase (PKLight, Cambrex Corporation) was assayed for its ability to generate light using ATP and luciferin as substrates. The ATP concentration in the assay (10 uM) was within the linear range of enzyme activity for the assay conditions used. See following reference for further details: [1] Auld DS, Southall NT, Jadhav A, Johnson RL, Diller DJ, Simeonov A, Austin CP, Inglese J. Characterization of chemical libraries for luciferase inhibitory activity. J Med Chem. 2008 Apr 24;51(8):2372-86. Auld DS, Zhang YQ, Southall NT, Rai G, Landsman M, Maclure J, Langevin D, Thomas CJ, Austin CP, Inglese J. A Basis for Reduced Chemical Library Inhibition of Firefly Luciferase Obtained from Directed Evolution. J. Med. Chem., 2009, 52 (5), pp 1450#1458 [3] Auld DS, Thorne N, Nguyen DT, Inglese J. A specific mechanism for nonspecific activation in reporter-gene assays. ACS Chem Biol. 2008 Aug 15;3(8):463-70. Auld DS, Thorne N, Maguire WF, Inglese J. Mechanism of PTC124 activity in cell-based luciferase assays of nonsense codon suppression. Proc Natl Acad Sci U S A. 2009 Mar 3;106(9):3585-90. Inglese J, Auld DS, Jadhav A, Johnson RL, Simeonov A, Yasgar A, Zheng W, Austin CP. Quantitative high-throughput screening: a titration-based approach that efficiently identifies biological activities in large chemical libraries. Proc Natl Acad Sci U S A. 2006 Aug 1;103(31):11473-8.
Four uL of substrate mix (final concentration, 50 mM imidazole pH 7.2, 50 mM KCl, 7 mM MgCl2, 10 uM ATP, 0.01% Tween 20, 0.05% BSA) was dispensed into white 1536 well plates. Twenty-three nL of compound was delivered by a pin tool and 2 uL of luciferase detector mix (PKLight, Cambrex) was added. Following 8-minute incubation at ambient temperature, luminescence was measured by a ViewLux (Perkin Elmer) at 5 seconds exposure/plate.
% is set by controls: 0 for no effect and ±100 for the full control effect.
Note: nearly all actives have a fitted effect of over 40% in size.

Compound | activity change, negative = inhibition
NC1CCCCC1.NP(=O)(O)N(CCCl)CCCl | inactive: 2.96% [at 11.4 µM]
N#CC1(Nc2ccccc2)CCN(CCc2ccccc2)CC1 | inactive: -0.613%
O=C(OC1CN2CCC1CC2)C1c2ccccc2Oc2ccccc21 (configuration not stated) | inactive: -1.76%
CCOc1ncccc1C(=O)NCC1(N2CCOCC2)CCCCC1 | inactive: 1.06%
O=C(O)C1(Nc2ccccc2)CCN(Cc2ccccc2)CC1 | inactive: 3.73% [at 11.4 µM]
Fc1ccccc1NC1CCN(Cc2ccccc2)CC1 | inactive: 0.264%
N/C(=N\O)c1c(N)no[n+]1[O-] | inactive: 2.47%
